As usually defined, the Kd is the constant that tells how readily two partners part at equilibrium. Low readings indicate a tighter complex, high ones a looser complex. In general, kon refers to the rate constant with which the complex forms. Higher therefore signals faster complex formation. The term koff denotes the rate constant with which the complex falls apart. A higher koff goes with a short-lived complex.

The chains behind the UniProt entries cited, without tags or fusion partners. Residues count along the entry.
UniProt P30882, 24-91: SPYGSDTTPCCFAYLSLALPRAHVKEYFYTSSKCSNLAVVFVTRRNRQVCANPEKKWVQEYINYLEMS

Assay [1] concerns the target Bovine papular stomatitis virus chemokine-binding protein (Bovine papular stomatitis virus). As to the kind of experiment: SPR; BPSV-CBP immobilised on a CM5 chip (~500 RU, amine coupling, 10 mM sodium acetate pH 4.5); serial dilutions of mouse chemokines in HBS-EP pH 7.4 flowed in triplicate, 3 min association, 10 min dissociation, 25°C, Biacore X100; global fit, 1:1 binding model. For orientation: In SPR one partner is held on a chip, and binding of the other changes the refractive index at the surface.

For assay [2], the target named is Bovine papular stomatitis virus chemokine-binding protein (Bovine papular stomatitis virus (strain V660 named for the sequence analysis)). As to the kind of experiment: SPR; BPSV-CBP immobilised on a CM5 chip (~500 RU) by amine coupling; serial dilutions of mouse chemokines in HBS-EP (20 mM HEPES, 150 mM NaCl, 3.4 mM EDTA, 0.005% Polysorbate 20, pH 7.4) run in triplicate, 3 min association, 10 min dissociation; 25°C, Biacore X100; global fit with a 1:1 binding model.

Regarding “mouse CCL5 (from UniProt P30882 24-91) (ligand)”, in assay [1], the equilibrium dissociation constant (Kd) is 3.75 pM and the on-rate constant (kon) came to 5.32e+06 M⁻¹ s⁻¹. In assay [2], this substance gave a koff of 2e-05 s⁻¹.

The values above are taken from PMC5148066.
